Assay results reported in patent US20050059719A1, “Solid dosage formulation containing a Factor Xa inhibitor and method” (priority 2003, published 2005).
Like-named read-outs stand apart in the source and are kept apart here.

Experiment: physchem

solubility: 0.0001 mg/mL | solubility (gastric medium (pH ~1-2), simulated gastric fluid): ~3 mg/mL
Compound: CN(C)Cc1nccn1-c1ccc(NC(=O)c2cc(C(F)(F)F)nn2-c2ccc3onc(N)c3c2)c(F)c1.Cl [Factor Xa inhibitor]
